The values that follow come from patent publication US10342818B2, “Dual-action compounds targeting adenosine A2A receptor and adenosine transporter for prevention and treatment of neurodegenerative diseases” (Academia Sinica, priority 2009, dated 2019).

Protein sequences, listed by entry. Tags and fused reporters are not part of them. Residues count along the entry.
UniProt H0V4R7, 1-461: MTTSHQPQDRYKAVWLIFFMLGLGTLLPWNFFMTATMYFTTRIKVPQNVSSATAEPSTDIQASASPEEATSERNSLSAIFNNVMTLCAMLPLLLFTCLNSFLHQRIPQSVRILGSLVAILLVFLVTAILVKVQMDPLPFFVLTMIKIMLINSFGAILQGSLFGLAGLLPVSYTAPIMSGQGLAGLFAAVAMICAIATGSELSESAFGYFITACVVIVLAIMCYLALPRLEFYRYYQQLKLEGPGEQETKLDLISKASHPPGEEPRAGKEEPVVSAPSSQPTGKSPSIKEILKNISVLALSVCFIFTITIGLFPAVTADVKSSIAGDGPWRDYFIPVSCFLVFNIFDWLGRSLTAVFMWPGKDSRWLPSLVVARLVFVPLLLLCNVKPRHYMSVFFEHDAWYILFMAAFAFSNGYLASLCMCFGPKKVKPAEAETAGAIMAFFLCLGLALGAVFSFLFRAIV

For one assay, the target named is human A2A receptor (Homo sapiens, UniProt P29274). The assay can be described thus: Radioligand binding assay of the A2A receptor (3H-CGS21680, MDS Pharma Services). To be noted: for Ki: read-out: Ki A2A-R, human adenosine A2A receptor, HEK293 membranes, 3H-CGS21680 50 nM.
The target in assay [1] is equilibrative nucleoside transporter 1 (ENT1) (Cavia porcellus, UniProt H0V4R7). The assay is described as follows: Radioligand binding assay for adenosine transporters (3H-NBTI, cerebral cortex membranes). The conditions noted are these: for Ki: read-out: Ki ENT1, guinea pig equilibrium transporter 1, cerebral cortex membranes, 3H-NBTI 0.5 nM.
Another assay has as its system PC12 cells. The assay is described as follows: MTT metabolism assay, rescue of serum-deprived PC12 cells from apoptosis. The conditions noted are these: 0.01 μM, 24 h. As to the method: We have previously reported that compound 1 isolated from an aqueous methanolic extract of Gastrodia elata prevented apoptosis of serum-deprived PC12 cells by suppressing JNK activity.^15 In this study, serum-deprived PC12 cells were treated with the compound at the indicated dose for 24 h. Cell viability was monitored by the MTT assay, and is expressed as a percentage of the MTT activity measured in the serum-containing group. At a concentration of 0.01 μM, compounds 4 and 6 also rescued PC12 cells from the apoptosis evoked by serum withdrawal equally as well as 1 according to the cell viability of MTT assays. […]
PC12 cells purchased from ATCC (Manassas, Va., USA) were maintained in Dulbecco's modified Eagle's medium (DMEM) supplemented with 10% horse serum and 5% fetal bovine serum and incubated in a CO2 incubator (5%) at 37° C. Survival was assessed by the 3-(4,5-dimethylthiazol-2-yl)-2,5-diphenyltetrazolium bromide (MTT) metabolism assay as described elsewhere.^49,50 In brief, cells grown on 150-mm plates were washed three times with PBS and resuspended in DMEM. […] The absorbance at 570/630 nm in each well was measured on a micro-enzyme-linked immunosorbent assay (ELISA) reader.
(Formazan colour is commonly taken as a measure of viable cells.)

Usually Ki stands for the dissociation constant of the complex between target and ligand, obtained from inhibition or displacement. As to `O=[N+]([O-])c1ccc(CNc2ncnc3c2ncn3[C@@H]2O[C@H](CO)[C@@H](O)[C@H]2O)cc1`, the inhibitory constant (Ki) on human A2A receptor stood at 27.7 µM; in assay [1], 0.00651 µM.
As to `OC[C@H]1O[C@@H](n2cnc3c(NCc4cccc(O)c4)ncnc32)[C@H](O)[C@@H]1O`, the “Rescue of PC12 cells from apoptosis evoked by serum withdrawal (cell viability, MTT)” value in the assay on PC12 cells is reported as “rescued PC12 cells from the apoptosis evoked by serum withdrawal equally as well as 1”. Also, on human A2A receptor (radioligand binding), the “Binding with A2AR, result in words” value is recorded as “low micromolar”. In addition, the inhibitory constant (Ki) at human A2A receptor stood at 3.21 µM; in assay [1] it was 3.72 µM. Also, the “Binding with / activity against ENT1, result in words” value in assay [1] (radioligand binding) is recorded as “sub-micromolar range”.
On to `OC[C@H]1O[C@@H](n2cnc3c(NCc4ccc(Br)cc4)ncnc32)[C@H](O)[C@@H]1O`, for which the values for the Ki (on human A2A receptor; in assay [1]) were 14.4 µM and 0.0144 µM, respectively.
